# Target: Human MOF catalytic domain (residues 125-458) (human) (UniProt Q9H7Z6)
# By UniProt entry, the sequences of proteins in these tests, tags left out. Residues count along the entry.
# UniProt Q9H7Z6, 125-458: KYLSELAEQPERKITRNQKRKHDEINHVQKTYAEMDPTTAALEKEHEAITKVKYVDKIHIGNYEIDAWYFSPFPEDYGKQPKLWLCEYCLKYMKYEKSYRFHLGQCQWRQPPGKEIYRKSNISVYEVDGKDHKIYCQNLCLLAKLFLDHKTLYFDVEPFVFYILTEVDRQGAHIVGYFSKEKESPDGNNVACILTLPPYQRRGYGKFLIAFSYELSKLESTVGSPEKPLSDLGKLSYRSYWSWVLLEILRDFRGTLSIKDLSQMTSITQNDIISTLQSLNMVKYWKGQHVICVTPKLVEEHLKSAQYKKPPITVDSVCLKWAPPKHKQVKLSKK
row,"Km^app of MOF-catalyzed acetylation (MALDI-TOF MS kinetics, steady state, saturating AcCoA, 37 °C, pH 7.4) [μM]",Substance
1,593,H4K16 histone peptide (H4 residues 13-27)
2,82.2,H4h2K16 histone peptide (H4 residues 13-27 with h2K at position 16)
3,344,H4hK16 histone peptide (H4 residues 13-27 with hLys at position 16)

# Target: Human MOF catalytic domain (residues 125-458) (human) (UniProt Q9H7Z6)
# Remark: another data set of the same source
row,"IC50 of inhibition of MOF-catalyzed acetylation of the H4K16 peptide (single point, 100 µM of each peptide, 1 h, 37 °C, MALDI-TOF MS; residual activity greater than 50%) [µM]",Substance
1,> 100,H4K*16 histone peptide containing Dab at position 16 (H4 residues 13-27)
2,> 100,H4K*16 histone peptide containing Orn at position 16 (H4 residues 13-27)
3,> 100,H4K*16 histone peptide containing h4K at position 16 (H4 residues 13-27)
